Data: ChEMBL document CHEMBL1140619

By UniProt entry, the sequences of proteins in these tests, tags left out.
UniProt P33533, whole entry: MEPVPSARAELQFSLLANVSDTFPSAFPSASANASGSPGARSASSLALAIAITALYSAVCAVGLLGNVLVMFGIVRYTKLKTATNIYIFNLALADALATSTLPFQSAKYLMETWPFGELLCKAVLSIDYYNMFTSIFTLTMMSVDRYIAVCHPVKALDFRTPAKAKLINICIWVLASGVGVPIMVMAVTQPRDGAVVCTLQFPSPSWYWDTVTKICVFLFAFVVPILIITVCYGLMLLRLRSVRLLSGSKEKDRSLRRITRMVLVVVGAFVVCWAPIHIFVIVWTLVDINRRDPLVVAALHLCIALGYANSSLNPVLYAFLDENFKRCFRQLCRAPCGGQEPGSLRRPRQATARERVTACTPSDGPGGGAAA

Target: Delta-type opioid receptor (Rattus norvegicus) (UniProt P33533)
Assay: Agonist activity at rat delta opioid receptor expressed in C6 cells assessed as stimulation of [35S]GTP-gamma-S binding relative to BW373U86
Assay type: functional, cell-based

`CO[C@]12CC[C@@]3(C[C@@H]1C(C)(C)O)[C@H]1Cc4ccc(O)c5c4[C@@]3(CCN1CC1CC1)[C@H]2O5` gave an Activity of 0.08.
